Data as given in doi:10.1101/2025.11.21.689824v1.

Test system: O=C(O)C[C@H](O)C(=O)O
Assay: purified protein
Settings: 50 mM NAD+, potassium phosphate buffer, 1 nM enzyme

## WT MDH (malate dehydrogenase) (Escherichia coli K-12)
  Km: 1300 ± 150 µM
  kcat: 20.6 ± 2.4 s⁻¹
